IC50 data for 1 molecule are collected here from patent publication US20090175786A1 (published 2009).

Sequences of proteins named here, by UniProt entry; tags and fusion partners are left off. A change or cut given only in a name is not applied to a line headed by its entry.
UniProt P30550: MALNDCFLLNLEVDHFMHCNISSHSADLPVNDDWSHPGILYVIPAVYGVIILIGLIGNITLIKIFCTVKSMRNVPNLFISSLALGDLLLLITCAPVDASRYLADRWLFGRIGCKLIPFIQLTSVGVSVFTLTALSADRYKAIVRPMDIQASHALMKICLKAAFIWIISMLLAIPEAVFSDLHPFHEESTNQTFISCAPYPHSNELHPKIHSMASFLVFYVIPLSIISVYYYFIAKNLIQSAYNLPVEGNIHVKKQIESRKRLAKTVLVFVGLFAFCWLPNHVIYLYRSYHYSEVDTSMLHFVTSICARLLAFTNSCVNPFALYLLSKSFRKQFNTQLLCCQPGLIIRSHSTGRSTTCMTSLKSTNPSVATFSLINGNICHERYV

For this experiment, the target named is T1, gastrin releasing peptide receptor (GRP-R), human (human, UniProt P30550 1-384).
T1 construct: whole, on cells; also called GRP receptor; GRP-preferring receptor
Description: 125I-BBN competition, PC3 cells.

A word on the IC50: it is the midpoint of a concentration-inhibition curve. Low values mean greater potency, high ones weaker potency.

B1: DO3A-monoamide-G-4-aminobenzoic acid-(D)-Phe-QWAVGHL-NH-Pentyl (peptide)
peptide: FQWAVGHL
modifications: N-terminus: DO3A-monoamide-Gly-4-aminobenzoic acid; residue 1 is D-Phe; C-terminal pentylamide (NH-Pentyl)
notes: also called L219
B1 returned an IC50 of 75 nM.
